High-throughput results: PubChem, ICCB-Longwood Screening Facility, Harvard Medical School
An excerpt weighted towards active compounds, which were near 0.43% of everything screened.
GIV Gai3 FP: inhibitors of GIV GBA-motif binding to rat Galpha-i3; P08753; Galpha-i3/FITC-GIV peptide fluorescence polarization, 90 min; hits give low values; scaled: aluminum fluoride 0%, vehicle 100%; percent of control (FP), % (test concentration not listed); AID 1224905; hit rate 0.42% among 210,000;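 active = replicate mean at 85% of control or lower, very high polarization wells dropped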;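 note: wells of about 15 µL received 100 nL stock; the first replicate is given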
HCMV UL50-53 inh: cytomegalovirus nuclear egress complex inhibition | HTRF UL50-UL53 interaction, normalized percent inhibition | inhibition, % (test concentration not listed) | 190,000 tested, 0.15% active; in the data active = inhibition above about 27%, passing the limit was not always enough
GIV-Gai FP conf: GIV-Galpha-i3 inhibition, FP confirmation. shares compounds with GIV Gai3 FP. 580 tested, 38% active. fluorescence polarization, mP at 100 µM. FITC-GIV peptide binding to Galphai3, fluorescence polarization; stronger effect = lower value;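 active = inhibition score of 15 or more, meaning 100 minus mean polarization as percent of control over three replicates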
GIV-Gai AS conf: GIV-Galpha-i3 inhibition, AlphaScreen confirmation. shares compounds with GIV Gai3 FP. AlphaScreen Galphai3-GIV binding, purified proteins, 90 min; stronger effect = lower value. AlphaScreen counts at 100 µM. 580 tested, 39% active;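 active = inhibition score at or above a set limit, where the score is 100 minus the three-replicate mean percent of control signal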
An asterisk follows results filed as active; . = not tested or not shown.

Below each SMILES – GIV Gai3 FP	HCMV UL50-53 inh	GIV-Gai FP conf	GIV-Gai AS conf
COc1ccc(C2Nc3ccccc3-c3nnc(SC)nc3O2)cc1C (configuration not stated)
  36*	-37	82	27274
CCNC(=O)c1cc2sccc2n1Cc1ccccc1
  98	-4	.	.
O=C(O)CSCC(=O)N1CCN(c2cc(C(F)(F)F)nc3ccccc23)CC1
  91	-48	72	48255
O=C(C1CCCCC1)N1CCN(c2cc(C(F)(F)F)nc3ccccc23)CC1
  112	11	.	.
CC1(C)CC(=O)C=C(SCc2cccc(Cl)c2)S1
  101	-10	.	.
CCOc1cc(/C=c2\sc3nc4c(C)c(C)ccc4n3c2=O)cc(Cl)c1O
  .	0	.	.
CCOC(=O)c1ccc(-c2ccc(/C=c3/sc4nc5c(C)c(C)ccc5n4c3=O)o2)cc1
  79*	.	66	32406
Cc1nc2sccn2c(=O)c1S(=O)(=O)N1CCCC1
  104	-33	.	.
Cc1cc(C(F)(F)F)c(C#N)c(=O)[nH]1
  40*	.	66	51023
Cc1cc(C(F)(F)F)[nH]c(=O)c1C#N
  .	-10	.	.
N/C(=N/OC(=O)c1ccccc1)c1ccccn1
  102	-2	.	.
Cc1cc2c(n1-c1ccc(C(=O)O)cc1)CCCC2
  79*	66*	58*	3001*
Cc1cc2c(n1-c1ccc(C(=O)N3CCN(c4ccccc4)CC3)cc1)CCCCC2
  101	.	.	.
O=C(C1CCN(c2nn3c(=O)c4c(nc3s2)CCCC4)CC1)N1CCN(c2ccccc2)CC1
  99	.	.	.
Cc1nnsc1C(=O)N1CCc2[nH]c3ccc(F)cc3c2C1
  99	-12	.	.
C=CCNC(=O)N1CCc2[nH]c3ccc(F)cc3c2C1
  85*	-36	59*	37919
CC1=NN(c2cc(S(=O)(=O)O)c3cccc(S(=O)(=O)O)c3c2)C(=O)C1
  59*	.	60	2889*
CC1=NN(c2cccc(C(F)(F)F)c2)C(=O)C1
  .	-12	.	.
COc1ccc(NC(=O)CSc2nnc3c4sc(N5CCCC5)nc4ncn23)cc1
  109	.	.	.
O=C(CSc1nnc2c3sc(N4CCCC4)nc3ncn12)Nc1ccccc1
  81*	.	81	31906
CCOC(=O)c1[nH]c(=O)c2ccccc2c1O
  110	-12	.	.
Cc1ccc(C(=O)c2[nH]c(=O)c3ccccc3c2O)c(C)c1
  81*	60*	61	47319
CCC1CCCCN1C(=O)Cn1c(=O)n(C2CCCC2)c(=O)c2ccccc21 (configuration not stated)
  101	.	.	.
Cc1ccc2c(c1)c1c(n2C)C(C#N)CCC1 (configuration not stated)
  96	-12	.	.
Cc1ccc2c(c1)c1c3c(nccn32)CCC1
  76*	-40	61*	13099
O=C(C1CC1)N(Cc1ccccn1)c1nc2ccccc2s1
  103	-21	.	.
COc1ccc2c(CC(=O)O)coc2c1
  90	-13	68	38743
COc1ccc2c(CC(=O)Nc3ccccc3)coc2c1
  .	-31	.	.
Cc1cc(C)c(OCCCNC(C)(C)C)c(Cl)c1
  .	-1	.	.
COCCn1c(C)cc(C=C2C(=O)NC(=O)NC2=O)c1C
  98	-35	.	.
COCCn1c(C)cc(C=C2C(=O)N(C)C(=S)N(C)C2=O)c1C
  93	.	70	21525*
CCOc1ccc(C(=O)NN2CCN(C)CC2)cc1
  101	-10	.	.
N#C/C(=C\C=C\c1ccco1)C(N)=S
  78*	51	50*	2145*
N#CC(C#N)=C(N)/C(C#N)=C/c1ccco1
  112	-69	.	.
Cc1ccc(/C=C/c2onc(C)c2S(=O)(=O)N2CCC(C(=O)N3CCC(N4CCCCC4)CC3)CC2)cc1
  108	-74	.	.
Cc1ccc(C2=N/C(=C\c3ccc(-c4cccc([N+](=O)[O-])c4)o3)C(=O)O2)cc1[N+](=O)[O-]
  104	-18	.	.
O=C(c1ccccc1)c1ccccn1
  77*	-20	72	34253
NC(=O)c1ccccn1
  .	-2	.	.
Cc1cc(-c2ccccc2)n2nc(-c3ccc(Cl)cc3)cc2n1
  51*	.	85	33087
Cc1cc(C(F)(F)F)n2nc(-c3ccccc3)cc2n1
  115	-23	.	.
CC1CCN(S(=O)(=O)c2cccc(C(=O)Nc3ccccc3C(=O)N3CCN(c4ccccc4)CC3)c2)CC1
  101	.	.	.
O=S(=O)(NC1CCCCCCC1)c1ccc(-c2ccno2)s1
  105	.	.	.
COc1ccc(-c2c(C#N)c(N)nc3sc(C(=O)OCc4ccccc4)c(N)c23)cc1OC
  101	.	.	.
CCOC(=O)CSc1nc(NCc2ccc3c(c2)OCO3)c2ccccc2n1
  112	.	.	.
CCOC(=O)c1nc2ccccc2nc1NCc1ccc2c(c1)OCO2
  93	-13	68	39953
CCCn1cc(S(=O)(=O)c2ccc(CC)cc2)c(=O)c2cc(F)c(N3CCN(C)CC3)cc21
  110	.	.	.
